Here are results for eight molecules from patent US8093251B2, “Nitrogen-containing heterocyclic compounds and thrombopoietin receptor activators” (Nissan Chemical Industries, Ltd., priority 2006, dated 2012).

Sequences of proteins named here, by UniProt entry; tags and fusion partners are left off. Residues count along the entry.
UniProt P40238, 26-635 limits assumed: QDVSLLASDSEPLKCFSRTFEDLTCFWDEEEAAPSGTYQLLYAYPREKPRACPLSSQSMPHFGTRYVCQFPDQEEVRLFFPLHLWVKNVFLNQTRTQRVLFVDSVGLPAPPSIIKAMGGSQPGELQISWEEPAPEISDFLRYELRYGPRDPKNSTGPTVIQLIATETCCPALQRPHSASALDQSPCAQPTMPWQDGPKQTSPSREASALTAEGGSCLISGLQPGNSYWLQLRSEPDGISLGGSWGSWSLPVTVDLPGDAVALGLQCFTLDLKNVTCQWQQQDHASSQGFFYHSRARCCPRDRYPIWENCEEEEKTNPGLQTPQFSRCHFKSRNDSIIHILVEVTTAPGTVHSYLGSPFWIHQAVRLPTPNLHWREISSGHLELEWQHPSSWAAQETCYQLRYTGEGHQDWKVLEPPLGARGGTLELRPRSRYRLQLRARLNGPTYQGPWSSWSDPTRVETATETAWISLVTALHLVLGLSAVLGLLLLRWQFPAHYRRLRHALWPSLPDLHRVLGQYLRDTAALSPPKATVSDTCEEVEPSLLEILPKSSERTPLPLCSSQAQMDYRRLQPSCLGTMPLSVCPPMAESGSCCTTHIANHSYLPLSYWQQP

The experiment addresses human thrombopoietin receptor (c-mpl) (Homo sapiens, UniProt P40238). Put plainly: Stimulation of proliferation of thrombopoietin-dependent cell line UT7/EPO-mpl (WST-8). To be noted: human leukemic cell line UT-7/EPO-mpl, 4 days incubation, WST-8, absorbance at 450 nm. The procedure:
The responses of thrombopoietin receptor to the compounds of the present invention prepared in the Synthetic Examples were assayed using a human leukemic cell line, UT7/EPO-mpl.
UT7/EPO-mpl is a stable transformed cell line obtained by introducing into human leukemic cell line UT7/EPO a vector that induces expression of human thrombopoietin receptor (c-mpl) under control of cytomegalovirus immediate-early promoter by the method of Takatoku et al. (J. Biol. Chem., 272:7259-7263 (1997)). […] These two cell lines were subcultured in IMDM (GIBCO) containing 10% fetal bovine serum (Thermo Electron or BioWest) using a CO2 incubator (5% CO2, 37° C.).
The subcultured cells described above were washed twice with PBS and suspended in IMDM containing 10% fetal bovine serum at a cell density of 6×10^4 cells/ml. The cell suspension was transferred to a 96-well tissue culture plate (CORNING) in 100-μl aliquots. Then either thrombopoietin (Pepro Tech EC) or the compounds of the Synthetic Examples dissolved in dimethyl sulfoxide were diluted 83-fold with IMDM containing 10% fetal bovine serum and added to the aforementioned cell suspension in 20-μl aliquots. The cell suspension was incubated in a CO2 incubator (5% CO2, 37° C.) for 4 days. Cell proliferation was assayed using WST-8 reagent (Kishida Chemical Co., Ltd.) according to instructions by the manufacturer. A 10-μl aliquot of 5 mM WST-8 reagent solution was added to each well of the tissue culture plate, and the plate was incubated at 37° C. for 4 hours. The formazan pigment generated was detected by measuring the absorbance at 450 nm with a 96-well microplate reader (Nihon Molecular Devices, Spectramax 190).
The concentration of each compound that yields a growth rate corresponding to 50% of the growth of human leukemic cell line UT-7/EPO-mpl observed in the presence of 10 ng/mL TPO (EC50) in the test on the compounds of the Synthetic Examples in Assay Example 1 are shown in Table 8.
(Tetrazolium assays rely on reduction of a dye to a coloured formazan, in cell work by metabolically active cells.)
For the molecule `CC1=NN(c2ccc(C(C)(C)C)cc2)C(=O)C1=C(C)NNC(=S)N1CCN(CC(=O)O)CC1`, the “EC50 (concentration that yields a growth rate corresponding to 50% of the growth observed in the presence of 10 ng/mL TPO)” value is 3.4 ng/mL.

As to `CC1=NN(c2ccc(Br)cc2)C(=O)C1=C(C)NNC(=S)N1CCC(C(=O)O)CC1`, the “EC50 (concentration that yields a growth rate corresponding to 50% of the growth observed in the presence of 10 ng/mL TPO)” value came to 3.1 ng/mL. For the molecule `CC1=NN(c2ccc(C)c(C)c2)C(=O)C1=C(C)NNC(=S)N1CCC(C(=O)O)CC1`, the “EC50 (concentration that yields a growth rate corresponding to 50% of the growth observed in the presence of 10 ng/mL TPO)” value amounted to 2.8 ng/mL. Turning to `CC1=NN(c2ccc(C(C)(C)C)cc2)C(=O)C1=C(C)NNC(=S)N1CCN(C(=O)C(=O)O)CC1`, the “EC50 (concentration that yields a growth rate corresponding to 50% of the growth observed in the presence of 10 ng/mL TPO)” value was found to be 2.1 ng/mL.

`CC1=NN(c2ccc(C(F)(F)F)cc2)C(=O)C1=C(C)NNC(=S)N1CCC(C(=O)O)CC1`: the “EC50 (concentration that yields a growth rate corresponding to 50% of the growth observed in the presence of 10 ng/mL TPO)” value is recorded as 2.9 ng/mL. Consider `CC1=NN(c2ccc(Cl)c(Cl)c2)C(=O)C1=C(C)NNC(=S)N1CCC(C(=O)O)CC1`, for which the “EC50 (concentration that yields a growth rate corresponding to 50% of the growth observed in the presence of 10 ng/mL TPO)” value was 3.0 ng/mL. On to `CC1=NN(c2ccc(C(C)(C)C)cc2)C(=O)C1=C(C)NNC(=S)N1CCC(C(=O)O)CC1`, for which the “EC50 (concentration that yields a growth rate corresponding to 50% of the growth observed in the presence of 10 ng/mL TPO)” value is on record as 2.8 ng/mL. Next, `COC(=O)C1CCN(C(=S)NNC(C)=C2C(=O)N(c3ccc(C)c(C)c3)N=C2C)CC1`: 31 ng/mL.
